{"source": "patent US5792759A", "about": "“17-hydroxyiminoalkyl and 17-hydroxyiminomethylalkenyl cyclopentaneperhydrophenanthrene derivatives active on the cardiovascular system, a process for their preparation and pharmaceutical compositions containing the same” (Sigma-Tau Industrie Farmaceutiche Riunite S.p.A., priority 1995, dated 1998)", "test_system": "SPONTANEOUS HYPERTENSIVE RATS (MHS)", "assay": "prevention of development of hypertension in pre-hypertensive rats, tail-cuff SBP and HR, 5 week oral treatment", "settings": "n=7, 20 mg/kg/os daily in 0.5% (w/v) Methocel, 5 weeks", "data": [{"smiles": "C[C@]12CC[C@H]3[C@@H](CC=C4C[C@@H](O)CC[C@@]43C)[C@@H]1CC[C@@H]2/C=C/C=N/OCCN", "note": "[I-g, (E,E)-17β-[3-(2-aminoethoxyimino)-1-propenyl]-androst-5-en-3β-ol]", "values": [{"measurement": "SBP (systolic blood pressure)", "setting": "controls 172+/-50", "result": "160+/-7.8 mm Hg"}, {"measurement": "HR (heart rate)", "setting": "controls 380+/-6.3", "result": "377+/-10.5 beats/min."}]}]}
